# Apparent affinities of Ab-14 variants for a coronavirus HR2 peptide

Target: peptide PDVDLGDISGINAS, taken from heptad repeat 2 (HR2) of SARS-CoV-2 spike.

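Phage display of a naive human antibody library on the peptide gave the parent. The variants were designed computationally from a first round of random CDR variants and then made and measured. Several design methods are mixed in this list. Affinity was read by AlphaSeq, a pooled yeast mating assay with surface-displayed partners. After mating in shaken culture at 30 °C for 16 h, diploids were selected and their barcode pairs sequenced. A regression on co-assayed BCL2-family reference pairs converts the normalised counts of each replicate to an apparent Kd. Mating was done six times.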

The variants keep the light chain, the linker and the frameworks of Ab-14 (scFv order VH, three GGGGS repeats, VL).
VH: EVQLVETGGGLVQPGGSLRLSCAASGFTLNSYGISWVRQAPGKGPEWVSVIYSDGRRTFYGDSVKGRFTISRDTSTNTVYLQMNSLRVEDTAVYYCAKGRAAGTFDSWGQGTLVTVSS
VL: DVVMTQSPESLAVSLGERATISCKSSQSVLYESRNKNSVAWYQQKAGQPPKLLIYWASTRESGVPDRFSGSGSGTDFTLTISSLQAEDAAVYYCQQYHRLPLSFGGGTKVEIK

Sequences are complete VH domains. The read-out is the apparent dissociation constant on a log10 scale (nM): the lower, the stronger. Where no diploid with the target was found in that replicate, the entry reads "ND": below detection, most likely a poor binder, though not proof of it. A sequence measured in both rounds can read differently, since the two assays cover different ranges. The authors averaged sequences with at least three values out of six and counted those with two or fewer as poor binders. The parent sequence was in this pool as ten entries: three were never detected, three once, and four in most replicates, with averages from 0.34 to 2.37. Three control strains display no target. For all heavy chain designs, 1% of the pairings with them gave a signal, with a median of 2.08 and one signal in twenty below 0.84, so weak values seen in few replicates may be background.

| log10 Kd (nM) by replicate | VH |
|---|---|
| ND ND ND ND ND ND | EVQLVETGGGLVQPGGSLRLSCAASGEDLGEYGISWVRQAPGKGPEWVSVIYADGVRASYIDSVKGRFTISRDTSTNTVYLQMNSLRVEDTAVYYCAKGESTGFVDVWGQGTLVTVSS |
| ND ND ND ND ND ND | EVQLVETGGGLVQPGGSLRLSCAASGFTLQSYGISWVRQAPGKGPEWVSVIYSDGRRTFYGDSVKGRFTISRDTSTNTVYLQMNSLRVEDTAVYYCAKGRAAGRTDSWGQGTLVTVSS |
| 1.07 1.49 1.72 1.24 1.34 2.13 | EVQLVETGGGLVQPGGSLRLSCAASGFTLNSYGISWVRQAPGKGPEWVSVIYSDGRRTFYGDSVKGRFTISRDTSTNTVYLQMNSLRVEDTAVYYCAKGQTAGTFDMWGQGTLVTVSS |
| 0.06 -0.50 0.34 -0.56 -1.45 -0.49 | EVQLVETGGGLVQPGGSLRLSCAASGFDLNEYGISWVRQAPGKGPEWVSVIYADGMRTAYTDSVKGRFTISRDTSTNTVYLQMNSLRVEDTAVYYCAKGNTAGTFDMWGQGTLVTVSS |
| ND ND ND ND ND ND | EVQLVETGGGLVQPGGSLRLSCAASGFWLNEYGISWVRQAPGKGPEWVSVIYSDGRRTFYGDSVKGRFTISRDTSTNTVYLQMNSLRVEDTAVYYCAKGQAAGTFDTWGQGTLVTVSS |
| -0.17 0.01 0.00 -0.78 0.15 -0.25 | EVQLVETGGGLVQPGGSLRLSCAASGFDLDEYGISWVRQAPGKGPEWVSVIYADGMRTAYSDSVKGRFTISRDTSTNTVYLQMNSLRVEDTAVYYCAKGNQAGTFDLWGQGTLVTVSS |
| 1.15 1.56 1.60 1.74 1.23 1.66 | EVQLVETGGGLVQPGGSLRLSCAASGFTLNEYGISWVRQAPGKGPEWVSVIYSDGRRTFYGDSVKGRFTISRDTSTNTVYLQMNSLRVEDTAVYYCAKGRSAGTFDKWGQGTLVTVSS |
| -0.19 -0.46 -0.46 -0.24 -0.50 -0.24 | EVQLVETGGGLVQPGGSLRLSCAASGFDLNEYGISWVRQAPGKGPEWVSVIYADGKRTFYSDSVKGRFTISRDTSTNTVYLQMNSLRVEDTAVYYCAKGTTGGTFDMWGQGTLVTVSS |
| -0.32 -0.40 -0.70 -0.82 -0.68 -0.33 | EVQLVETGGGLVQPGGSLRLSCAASGFDLNEYGISWVRQAPGKGPEWVSVIYADGRRTFYIDSVKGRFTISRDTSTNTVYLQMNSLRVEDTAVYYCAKGQIAGTFDQWGQGTLVTVSS |
| 0.88 0.71 0.24 0.68 0.21 -0.02 | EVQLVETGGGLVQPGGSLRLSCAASGFDLNSYGISWVRQAPGKGPEWVSVIYSDGRRTFYGDSVKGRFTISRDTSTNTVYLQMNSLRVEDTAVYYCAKGRAAGAFWSWGQGTLVTVSS |
| -0.38 -0.42 -0.31 -0.78 -0.77 -0.40 | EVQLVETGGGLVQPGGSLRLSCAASGFDLDEYGISWVRQAPGKGPEWVSVIYADGKRTAYSDSVKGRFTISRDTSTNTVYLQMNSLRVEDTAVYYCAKGNNAGTFDVWGQGTLVTVSS |
| -0.73 -0.40 -0.61 -1.27 -0.75 -0.75 | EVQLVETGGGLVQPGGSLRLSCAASGFDLNEYGISWVRQAPGKGPEWVSVIYADGMRTAYVDDVKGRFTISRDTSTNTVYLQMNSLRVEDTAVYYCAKGENAGTFDIWGQGTLVTVSS |
| ND ND ND ND ND ND | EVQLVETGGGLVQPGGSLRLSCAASGFDLNEYGISWVRQAPGKGPEWVSVIYADGRRTFYADSVKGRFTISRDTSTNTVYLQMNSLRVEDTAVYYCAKGEAAGTFDIWGQGTLVTVSS |
| 0.18 0.00 0.45 0.50 0.07 0.46 | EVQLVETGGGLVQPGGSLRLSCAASGFDLDEYGISWVRQAPGKGPEWVSVIYADGMRTAYVDSVKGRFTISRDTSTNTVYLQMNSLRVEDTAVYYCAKGETAGTFDVWGQGTLVTVSS |
| -0.55 -0.57 -0.68 -0.91 -1.13 -1.01 | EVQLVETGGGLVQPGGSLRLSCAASGFDLNEYGISWVRQAPGKGPEWVSVIYADGLRTAYVDSVKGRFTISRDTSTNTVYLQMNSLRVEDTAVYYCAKGNNAGTFDVWGQGTLVTVSS |
| ND ND ND ND ND ND | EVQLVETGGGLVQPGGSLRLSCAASGDTLNSYGISWVRQAPGKGPEWVSVIYSDGRRAVYDDSVKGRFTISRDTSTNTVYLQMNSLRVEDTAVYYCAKGQLAGTFDSWGQGTLVTVSS |
| ND ND ND ND -0.32 ND | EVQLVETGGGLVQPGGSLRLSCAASGFDLNEYGISWVRQAPGKGPEWVSVIYADGKRTYYADSVKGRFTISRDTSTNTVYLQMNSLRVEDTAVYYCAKGNQAGTFDVWGQGTLVTVSS |
| -0.38 -0.33 -0.67 -0.47 -0.40 -0.33 | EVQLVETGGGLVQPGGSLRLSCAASGFDLNEYGISWVRQAPGKGPEWVSVIYADGMRTAYADNVKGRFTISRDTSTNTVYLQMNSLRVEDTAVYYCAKGEVAGTFDMWGQGTLVTVSS |
| 0.07 0.07 -0.02 -0.12 -0.18 -0.11 | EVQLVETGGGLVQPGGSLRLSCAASGFSLDEYGISWVRQAPGKGPEWVSVIYADGRRTFYADSVKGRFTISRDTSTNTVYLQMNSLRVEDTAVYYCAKGNVAGTFDQWGQGTLVTVSS |
| ND ND ND ND ND ND | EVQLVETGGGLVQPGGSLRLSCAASGFTLNSYGISWVRQAPGKGPEWVSVIYSDGRRTFYGDSVKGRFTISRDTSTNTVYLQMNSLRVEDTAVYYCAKGEAAGTFDTWGQGTLVTVSS |
| ND 2.09 1.48 1.52 ND 1.82 | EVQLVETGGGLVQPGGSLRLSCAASGFSLNSYGISWVRQAPGKGPEWVSVIYSDGRRTFYCDSVKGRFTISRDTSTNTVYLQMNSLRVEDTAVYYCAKGRTAGTFDTWGQGTLVTVSS |
| 0.01 -0.03 -0.39 -0.57 -0.28 -0.37 | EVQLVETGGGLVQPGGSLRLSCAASGFDLNSYGISWVRQAPGKGPEWVSVIYSDGRRTFYGDSVKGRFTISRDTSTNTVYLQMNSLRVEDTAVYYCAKGQEAGTFDAWGQGTLVTVSS |

Excerpt, the final 2 entries:

VH	log10 Kd (nM) by replicate
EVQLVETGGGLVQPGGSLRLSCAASGFSLNSYGISWVRQAPGKGPEWVSVIYSDGRRTFYCDSVKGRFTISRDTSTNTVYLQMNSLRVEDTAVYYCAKGRTAGTFDTWGQGTLVTVSS	ND 2.09 1.48 1.52 ND 1.82
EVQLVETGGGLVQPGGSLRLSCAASGFDLNSYGISWVRQAPGKGPEWVSVIYSDGRRTFYGDSVKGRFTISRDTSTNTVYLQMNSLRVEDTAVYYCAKGQEAGTFDAWGQGTLVTVSS	0.01 -0.03 -0.39 -0.57 -0.28 -0.37

Source: Li et al. 2023 (doi:10.1038/s41467-023-39022-2), MIT Lincoln Laboratory and A-Alpha Bio; data file from the FLAb repository.